Key:
[1] = Plasma pharmacokinetics, noncompartmental, SAD/MAD trial; type: in vivo, human; settings: for Tmax: human, in vivo; for CL/F / Vz/F: geometric mean (CV% GM)
[2] = Holter ECG, concentration-QTcF, by-time point and categorical analysis; type: in vivo, human; settings: single doses 25–500 mg
[3] = single dose 350 mg, part 1, N 6
[4] = single dose 500 mg, part 1, N 6

C=CC(=O)N1CCC(CNc2ncnc(N)c2-c2ccc(Oc3ccccc3)cc2)CC1 [evobrutinib]
mean terminal phase concentration as % of Cmax 24 hours postdose ([1]; higher single doses (350 and 500 mg)): < 1 % of Cmax | Tmax [1]: 30 to 60 min | Tmax ([1]; 50 mg, Tmax, single dose 50 mg, part 1, N 6, median and range): 30 min | Tmax ([1]; 75 mg, Tmax, multiple-dose study day 1, 75 mg, N 9, median and range): 30 min | Tmax ([1]; 100 mg, Tmax, single dose 100 mg, part 1, N 6, median and range): 30 min | Tmax ([1]; 200 mg, Tmax, multiple-dose study day 1, 200 mg, N 9, median and range): 30 min | Tmax ([1]; 200 mg, Tmax, multiple-dose study day 14, 200 mg once daily, N 9, median and range): 30 min | Tmax ([1]; 200 mg, Tmax, single dose 200 mg, part 1, N 6, median and range): 30 min | Tmax ([1]; 500 mg, Tmax, single dose 500 mg, part 1, N 6, median and range): 30 min | CL/F ([1]; multiple-dose study day 1, 25 mg, N 9): 3,390 (38.7) mL/minute | CL/F ([1]; multiple-dose study day 1, 75 mg, N 9): 3,850 (37.5) mL/minute | CL/F ([1]; multiple-dose study day 1, 200 mg, N 9): 3,000 (24.6) mL/minute | CL/F ([1]; single dose 25 mg, part 1, N 6): 4,000 (53.6) mL/minute | CL/F ([1]; single dose 50 mg, part 1, N 6): 2,550 (35.7) mL/minute | CL/F ([1]; single dose 100 mg, part 1, N 6): 3,840 (30.3) mL/minute | CL/F ([1]; single dose 200 mg, part 1, N 6): 3,900 (27.0) mL/minute | CL/F [1, 3]: 3,050 (41.7) mL/minute | Vz/F [1, 3]: 1,800 (136) L | CL/F [1, 4]: 2,590 (25.0) mL/minute | Vz/F [1, 4]: 1,490 (64.6) L | plasma concentration as % of Cmax within 8 hours ([1]; single dosing, part 1): < 1 % of Cmax | impact of evobrutinib concentration on QTc (concentration‐QTcF analysis) [2]: did not prolong QTcF

From publication PMC7070898 (Clinical and Translational Science, 2019)
